Assay results published in patent US20020039725A1, “Fish hatching method and apparatus” (published 2002).

Legend:
Nothobranchius guentheri = experiment: Rapid killifish 24 hour acute toxicity test with newly hatched fry; settings: for N. guentheri 24-HR LC50 / N. guentheri 24-HR EC50: Example 4 table; for N. guentheri 24-HR LC50: trimmed Spearman-Karber; for N. guentheri 24-HR EC50: trimmed Spearman-Karber (moving average for TNT, SDS); for N. guentheri 24-h EC50: median effective concentration (stress), trimmed Spearman-Karber unless noted (moving-average for 2,4-D, SDS); for N. guentheri 24-h EC50 / N. guentheri 24-h LC50: 25° C.; for N. guentheri 24-h LC50: median lethal concentration (death), fry 24 h post hatch, trimmed Spearman-Karber unless noted
Mysidopsis bahia = settings: cited from earlier work; for M. bahia 96-h LC50: data from [13], median values of literature citations; for M. bahia 96-h LC50, additional data in parentheses: updated AQUIRE literature survey
Ceriodaphnia dubia = settings: data from [13], median values of literature citations; cited from earlier work
Pimephales promelas = settings: cited from earlier work; for P. promelas 96-hr LC50: Example 4 table, mean LC50 from Toussaint et al., 1995; for P. promelas 96-h LC50: data from [13], median values of literature citations
Daphnia magna = settings: cited from earlier work; for D. magna 48-h LC50: data from [13], median values of literature citations; for D. magna 48-h LC50, additional data in parentheses: updated AQUIRE literature survey
Selenastrum capricornium = settings: data from [13], median values of literature citations; cited from earlier work
[1] = embryos after 30-d storage at 21 to 25° C.
[2] = embryos after 90-d storage at 21 to 25° C.

Row | Molecule | N. guentheri 24-HR LC50 (Nothobranchius guentheri) [µg/mL] | N. guentheri 24-HR EC50 (Nothobranchius guentheri) | N. guentheri 24-h EC50 (Nothobranchius guentheri) [µg/mL] | N. guentheri 24-h LC50 (Nothobranchius guentheri) [µg/mL] | M. bahia 96-h LC50 (Mysidopsis bahia) [µg/mL] | M. bahia 96-h LC50, additional data in parentheses (Mysidopsis bahia) [µg/mL] | C. dubia 48-h EC50 (Ceriodaphnia dubia) [µg/mL] | P. promelas 96-hr LC50 (Pimephales promelas) [µg/mL] | P. promelas 96-h LC50 (Pimephales promelas) [µg/mL] | D. magna 48-h LC50 (Daphnia magna) [µg/mL] | D. magna 48-h LC50, additional data in parentheses (Daphnia magna) | S. capricornium 96-h EC50 (Selenastrum capricornium) [µg/mL] | EC50, zinc reference test (Nothobranchius guentheri; [1]) | LC50, zinc reference test (Nothobranchius guentheri; [1]) | EC50, zinc reference test (Nothobranchius guentheri; embryos after 60-d storage at 21 to 25° C.) | LC50, zinc reference test (Nothobranchius guentheri; embryos after 60-d storage at 21 to 25° C., binomial method) | EC50, zinc reference test (Nothobranchius guentheri; [2]) | LC50, zinc reference test (Nothobranchius guentheri; [2]) | P. promelas 96-h LC50, additional data in parentheses (Pimephales promelas; updated AQUIRE literature survey)
1 | copper | 0.039 | 0.033 mg/L | 0.033 | 0.039 | 0.16 | 0.15 | 0.027 | 0.48 | 0.48 | 0.052 | (0.16)^c mg/L | 0.04 | – | – | – | – | – | – | –
2 | O=C(O)COc1ccc(Cl)cc1Cl | – | – | 80 | 90 | – | – | 236 | – | 227 | 25 | – | 96 | – | – | – | – | – | – | –
3 | Unionized ammonia | 1.15 | 0.57 mg/L | 0.57 | 1.2 | 1.4 | – | 2.2 | 1.59 | 1.6 | 1.5 | – | – | – | – | – | – | – | – | –
4 | Oc1ccccc1 | – | 44.6 mg/L | 45 | – | – | – | 4.3 | – | – | – | – | 61 | – | – | – | – | – | – | –
5 | Zinc | 8.6 | 5.75 mg/L | 5.8 | 8.6 | 0.50 | 0.30 | 0.076 | 2.65 | 2.65 | 0.56 | (1.6)^c mg/L | 0.06 | 8.0 (6.1-10.5) mg/L | 16.9 (12.5-22.8) mg/L | 7.5 (6.0-9.2) mg/L | 9.8 (7.0-13.9)^b mg/L | 4.6 (4.0-5.3) mg/L | 9.0 (7.9-10.2) mg/L | –
6 | CCOC(=O)CC(SP(=S)(OC)OC)C(=O)OCC (stereo not shown) | 6.94 | 2.91 mg/L | 2.9 | 6.9 | 4.2 | 0.01 | – | 11.8 | 12 | 0.001 | – | – | – | – | – | – | – | – | –
7 | Oc1c(Cl)c(Cl)c(Cl)c(Cl)c1Cl | – | – | – | – | – | – | 0.28 | – | – | – | – | 0.34 | – | – | – | – | – | – | –
8 | CCCCCCCCO | 22.8 | 11.5 mg/L | 12 | 23 | – | – | 8.7 | 13.5 | 13.5 | 37 | – | – | – | – | – | – | – | – | (13.5)^f mg/L
9 | cadmium | 4.2 | 0.73 mg/L | 0.73 | 4.2 | 0.03 | 0.02 | 0.11 | 2.02 | 2.0 | 0.065 | – | 0.04 | – | – | – | – | – | – | –
10 | CCCCCCCCCCCCOS(=O)(=O)[O-].[Na+] | 39.5 | 31.11^c mg/L | 31 | 40 | 6.6 | – | 48 | 8.0 | 8.0 | 9.6 | (25)^l mg/L | 3.8 | – | – | – | – | – | – | –

Marks after values point to notes of the source that are not given here.
